Patent publication US10052318B2, “Glutamate agents in the treatment of mental disorders” (YALE UNIVERSITY, priority 2005, dated 2018)
“And” between values parts separate entries of the source, which are not always exact repeats. Equal values may be shown once. Read-outs that look alike come from different tables or passages of the source.

Key:
[1] = system: patients with serotonin reuptake inhibitor-resistant obsessive-compulsive disorder
[2] = system: patients treated with riluzole; details: Aventis 2004; cited from earlier work

Nc1nc2ccc(OC(F)(F)F)cc2s1 [Riluzole, riluzole]
HAM-D scores for the entire group over time ([1]; F1,10.8=9.12, p=0.012): improved significantly
Y-BOCS scores over time ([1]; F1,11.1=19.78, p=0.001): improved significantly
patients with asymptomatic, transient increases in at least one LFT ([1]; LFT at baseline and every three weeks): four of thirteen
Mean ALT ([1]; baseline): 22.9 (±12.3)
Mean Alk Phos ([1]; baseline): 75 (±13.5)
overall reduction in mean Y-BOCS for the entire cohort ([1]; baseline to end of study): 42%
patients categorized as treatment responders ([1]; five of thirteen, 35% or greater reduction in baseline Y-BOCS, final Y-BOCS of 16 or less, clinician consensus): 39%
Mean HAM-A at end of study ([1]; group of 13 patients, end of study): 12 (±2.5)
increase in ALT in one patient ([1]; one patient, asymptomatic): exceeded nine times normal
CGI Treatment Response ([1]; one table line per patient, riluzole 50 mg twice a day added to SRI, study duration 6, 9 or 12 weeks): 3 (3×) and 4 and 2
Post HAM-A Score ([1]; per patient, after riluzole 50 mg twice a day added to SRI, 6-12 weeks, * = >35% reduction): 3
Mean ALT ([1]; week six): 35.3 (±28.3)
Mean AST ([1]; week six): 22 (±13.84)
Mean Alk Phos ([1]; week six): 83.7 (±24.4)
patients experiencing LFT elevations greater than five times the upper limit of normal [2]: approximately 2%
patients experiencing elevations in at least one LFT measure [2]: more than 50%
